# Yeast mating assay B: variants of the scFv Ab-14

Source: Li et al. 2023 (doi:10.1038/s41467-023-39022-2), MIT Lincoln Laboratory and A-Alpha Bio; data file from the FLAb repository.

The target is the same throughout: PDVDLGDISGINAS, from the HR2 region of SARS-CoV-2 spike.

Parent: Ab-14, a human scFv built as VH, three GGGGS repeats, VL. Only the CDRs of the heavy chain vary.
VH: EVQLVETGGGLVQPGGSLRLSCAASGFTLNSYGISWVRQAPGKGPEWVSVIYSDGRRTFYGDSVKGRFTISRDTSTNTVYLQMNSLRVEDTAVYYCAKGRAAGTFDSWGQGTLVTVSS
VL: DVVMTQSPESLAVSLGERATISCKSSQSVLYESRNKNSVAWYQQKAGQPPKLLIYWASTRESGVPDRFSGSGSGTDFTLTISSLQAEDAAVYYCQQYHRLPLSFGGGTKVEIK

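This is the validation round: designs drawn from the data on random variants, tested in the same kind of assay. Group labels follow the data file (Ctrl: baseline library sampled from a position-specific scoring matrix, with some repeated check sequences; Rand: our label for a block that the file lists under HC and that is probably the random mutants of the ten best first-round binders; En: ensemble of fine-tuned language models; GP: Gaussian process model; GPLM: also part of the Gaussian process libraries; HC: hill climbing; Gen: genetic algorithm; Gibbs: Gibbs sampling; a sequence that several methods proposed may carry one label only). The assay is AlphaSeq: two haploid yeast populations carry antibody and antigen on their surface. After mating in shaken culture at 30 °C for 16 h, diploids were selected and their barcode pairs sequenced. Each replicate has its own calibration line, from reference interactions of the BCL2 family. Each pool was mated in six replicate cultures.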

The parent's heavy chain CDRs are GFTLNSYGIS, VIYSDGRRTFYGDSVK, GRAAGTFDS; each variant's own CDRs replace them letter for letter.
Each Kd is an estimate from the mating assay, the geometric mean of the replicates in which the pair was seen; lower is stronger.
An entry "nd" has no value in the source: the pair was not observed among the diploids in any replicate. This suggests poor binding but is not conclusive.
The authors' rule: three or more of the six replicates give a measured affinity, fewer mean a poor binder.

CDR-H1	CDR-H2	CDR-H3	group	apparent Kd	seen in	signal with controls
GFTLNSYGIS	VIYSDGRRTFYGDSVK	IRAAGTSIS	Ctrl	nd	0 of 6	0 of 18
GFTLNSYGIS	VIYSDGMRTFYGGSVK	GSAAGTFDS	Ctrl	nd	0 of 6	0 of 18
GFDLNEYGIS	VIYADGRRTAYADSVK	GNVAGTFFS	En_HC	9.9 nM	6 of 6	0 of 18
GFMLDDYGIS	VIYSDGRRTFYGDSVK	GRMAGTFDL	Ctrl	3.8 nM	6 of 6	0 of 18
GFTLNQYGIS	VIYSDGRRTFYGPSVK	GRAAGTFDS	Ctrl	24 nM	5 of 6	1 of 18
KFTLNSYGIS	RIYSDGRRTFYGDSVK	GRAHGRFDS	Ctrl	nd	0 of 6	0 of 18
GFWLNSYGIS	VIYADGRRTFYGDSVK	GNAAGTFDS	GP_Gen	1.8 nM	6 of 6	1 of 18
GFSLNEYGIS	VIYADGRRTFYGDSVK	GNAAGTFDS	GP_HC	290 pM	6 of 6	0 of 18
GFDLDEYGIS	VIYADGMRTAYTDSVK	GNVAGTFDV	En_Gen	850 pM	6 of 6	0 of 18
GFSLDEYGIS	VIYADGLRKQYSNKVK	GLQGFFFDQ	En_Gibbs	nd	0 of 6	0 of 18
GFDLNEYGIS	VIYADGMRTAYADSVK	GQNAGTFDV	En_Gen	2.1 nM	1 of 6	0 of 18
GFDLNEYGIS	VIYADGVRTAYADDVK	GENAGTFDT	En_Gen	560 pM	6 of 6	0 of 18
GFTLNSYGIS	VIYSDGFRTFYGDSVK	GRAAGTFDS	Ctrl	2.4 nM	1 of 6	0 of 18
GFDLNSYGIS	VIYADGRRTFYGDSVK	GRAAGTNDS	GPLM_HC	3.7 nM	6 of 6	0 of 18
GFKLNSYGIS	VIYSDGRRTFYIDSVK	GQLAGTFDS	GP_HC	nd	0 of 6	0 of 18
GFDLNEYGIS	VIYADGVRTAYSDNVK	GETAGTFDV	En_Gen	320 pM	6 of 6	0 of 18
GFNLEEVGIS	VIYADGLRSAYVDAVK	GGVTDVDFV	En_Gibbs	nd	0 of 6	0 of 18
GFDVEDYGIS	VIYADGRRQQYAQKFK	GTIGGTFVD	En_Gibbs	nd	0 of 6	0 of 18
GFDLNEYGIS	VIYADGRRTFYADSVK	GNNAGTFLV	En_HC	9.7 nM	6 of 6	0 of 18
GFNLDEYGIS	VIYADGVRTFYSNSVK	GYGGIFMEG	En_Gibbs	nd	0 of 6	0 of 18
GFDLNEYGIS	VIYADGRRTAYADNVK	GNVAGTFDT	En_Gen	1.5 nM	6 of 6	0 of 18
GFTLNEYGIS	VIYSDGRRTFYGDSVK	YRAAVWFDQ	Rand	1.4 nM	6 of 6	0 of 18
GFWLNSYGIS	VIYSDGRRTFYADSVK	GQAAGTFDL	GPLM_Gen	10 nM	2 of 6	0 of 18
GFDLNEYGIS	VIYADGVRTAYADSVK	GENAGTFVI	En_Gen	80 nM	4 of 6	0 of 18
GFPLNSYGPS	VIYSDGRRTFYDDSVK	GMLARTFDS	Rand	nd	0 of 6	0 of 18
GFTMNSYGIS	VIYSDGRRTFYDDSVK	GRAAGTFDS	Ctrl	nd	0 of 6	0 of 18
GFTLNEYGIS	VIYSDGRRTFYGDVVK	GRAGVTFDD	Rand	nd	0 of 6	0 of 18
GFQLNDYGIS	VIYSDGRRTFYGDSVK	GRTAGTFDK	GPLM_Gibbs	1.8 nM	6 of 6	1 of 18
GFDLDEYGIS	VIYADGRRTAYSDSVK	GEVAGTFDT	En_Gen	520 pM	6 of 6	0 of 18
GFSLNSYGIS	VIYADGRRTFYGDNVK	GRAAGTFKS	GP_HC	410 nM	2 of 6	0 of 18
GFTCNSYGIS	VIYSDGRRTFYSDSVK	GRAGGTFDS	Rand	nd	0 of 6	0 of 18
GKNLDEYGVS	VIYADGKRTAYTNNFK	GGNAGFFMS	En_Gibbs	nd	0 of 6	0 of 18
GFDLDEYGIS	VIYADGKRTAYADSVK	GNVAGTFDV	En_Gen	220 pM	6 of 6	0 of 18
GFTLNSYGIS	VIYSDGFRTFYGDSVK	GAAAGIFDS	Ctrl	390 nM	1 of 6	1 of 18
GFTLNSYGIS	VIYSDGRRTFYGDSVK	REAAGSFPL	Ctrl	nd	0 of 6	0 of 18
GFDLNEYGIS	VIYADGMRSYYADSVK	GENAGTFDL	En_Gen	1.0 nM	6 of 6	0 of 18
GFDLNEYGIS	VIYSDGRRTFYGDSVK	GRTAGTFDK	GP_Gen	750 pM	6 of 6	0 of 18
GFDLNEYGIS	VIYADGRRTFYTDSVK	GGNAGTFVS	En_HC	59 nM	4 of 6	0 of 18
GFTLNSYGGS	VIYSDGRRTFYGDSVK	GRAAGTFDS	Ctrl	2.4 nM	6 of 6	0 of 18
GFSLNSYGIS	VIYSDGRRTFYGDSVK	GRHAGTFDS	GPLM_Gen	68 nM	6 of 6	0 of 18
GFTLNSYGIS	VIYSDGWRTFYSDSVK	GRVAGTFDS	GPLM_Gibbs	7.0 nM	6 of 6	1 of 18
GFTLNSYGIS	VIYADGRRTFYGDSVK	GRAAGTFDQ	GPLM_Gen	1.5 nM	6 of 6	0 of 18
GFDLNSYGIS	VIFSDGRRTFYGDSVK	GRAAGVFNS	Rand	160 nM	1 of 6	1 of 18
GMNIDEYGIS	VIYADGQRTHYINSVK	GEQAGIDMY	En_Gibbs	610 nM	1 of 6	1 of 18
GFTLNEYGIS	VIYSDGRRTFYADSVK	GRAAVTFDT	GP_HC	120 pM	6 of 6	0 of 18
GFSLNSYGIS	VIYSDGRRQFYTDSVK	GRAAGTFDS	Ctrl	22 nM	6 of 6	0 of 18
GFDLNEYGIS	VIYADGRRTAYIDSVK	GNNAGTFDQ	En_HC	270 pM	6 of 6	0 of 18
GFSLNSYGIS	VIYSDGRRTFYGDSVK	GAAAGTFDS	Ctrl+GPLM_Gen	2.6 nM	12 of 12	1 of 36
GFDLNEYGIS	VIYADGQRTAYADSVK	GANAGTFDL	En_Gen	460 pM	6 of 6	2 of 18
GFNLDEYGIS	VIYADGRRTAYAESVK	NSNMSGRVT	En_Gibbs	nd	0 of 6	0 of 18
GFDLDEYGIS	VIYADGQRTAYIDSVK	GNQAGTFDV	En_Gen	630 pM	6 of 6	1 of 18
GFDINEYGIS	VIYADGRRKAYSDAVK	GIDVYGKTV	En_Gibbs	nd	0 of 6	0 of 18
RFTLDSYGIS	VIYADGFRTFYGDSVK	ARSAGTFDS	Ctrl	nd	0 of 6	0 of 18
GFSLNEYGIS	VIYSDGRRTFYADSVK	GRAAGTFDK	GPLM_Gen	320 pM	6 of 6	0 of 18
GFDLVEYGIS	VIYADGQRTVYADTVK	GHHGGIFDM	En_Gibbs	1.5 nM	6 of 6	1 of 18
GFTLNEYGIS	VIYSDGRRTFYGDSVK	GRAAETFDL	GP_HC	nd	0 of 6	0 of 18
GFELNDYGIS	VIYSDGRRTFYTDSVK	GKAAGTFDS	GP_Gibbs	2.7 nM	6 of 6	1 of 18
GFTLNSYGIS	VIYSDGRRTFYDDSVK	GQTAGTFDT	GP_HC	2.2 nM	6 of 6	0 of 18
KFTLNSYGIS	VIYSDGRRTFYIDSVK	GQTAGTFDS	GP_HC	1.9 nM	6 of 6	0 of 18
GFDLNEYGIS	VIYADGMRTAYIDSVK	GNVAGTFDV	En_Gen	210 pM	6 of 6	0 of 18
GFDLNEYGIS	VIYADGLRTAYADNVK	GNVAGTFDV	En_Gen	170 pM	6 of 6	0 of 18
GFWLNEYGIS	VIYSDGRRTFYYDSVK	GRQAGTFDS	GP_HC	nd	0 of 6	0 of 18
GFTLNEYGIS	VIYSDGRRTFYDDSVK	GRNAGTFDS	GP_HC	nd	0 of 6	0 of 18
GFDLNEYGIS	VIYADGSRTAYADSVK	GKNAGTFDV	En_Gen	320 pM	6 of 6	1 of 18

The last 8 entries again:

CDR-H1	CDR-H2	CDR-H3	group	apparent Kd	seen in	signal with controls
GFELNDYGIS	VIYSDGRRTFYTDSVK	GKAAGTFDS	GP_Gibbs	2.7 nM	6 of 6	1 of 18
GFTLNSYGIS	VIYSDGRRTFYDDSVK	GQTAGTFDT	GP_HC	2.2 nM	6 of 6	0 of 18
KFTLNSYGIS	VIYSDGRRTFYIDSVK	GQTAGTFDS	GP_HC	1.9 nM	6 of 6	0 of 18
GFDLNEYGIS	VIYADGMRTAYIDSVK	GNVAGTFDV	En_Gen	210 pM	6 of 6	0 of 18
GFDLNEYGIS	VIYADGLRTAYADNVK	GNVAGTFDV	En_Gen	170 pM	6 of 6	0 of 18
GFWLNEYGIS	VIYSDGRRTFYYDSVK	GRQAGTFDS	GP_HC	nd	0 of 6	0 of 18
GFTLNEYGIS	VIYSDGRRTFYDDSVK	GRNAGTFDS	GP_HC	nd	0 of 6	0 of 18
GFDLNEYGIS	VIYADGSRTAYADSVK	GKNAGTFDV	En_Gen	320 pM	6 of 6	1 of 18

A sequence measured in both rounds can read differently, since the two assays cover different ranges.
Of ten entries with the parent sequence, four were seen in most replicates (averages 2.2 nM to 240 nM), three in one and three in none, so single entries are noisy.
Some sequences occur more than once in the pool; their replicates are pooled.
Background: pairings of all heavy chain designs with three empty control strains gave a value in 1% of cases (median 120 nM, 5th percentile 7.0 nM). Values in that range, when seen in few replicates, are hard to tell from nonspecific mating. The control count says in how many pairings with the empty strains this scFv gave a signal.